Experimental data: PMC4251066, “Polyyne Hybrid Compounds from Notopterygium incisum with Peroxisome Proliferator-Activated Receptor Gamma Agonistic Effects” (Journal of Natural Products, 2014)

By UniProt entry, the sequences of proteins in these tests, tags left out. Residues count along the entry.
UniProt P37231, 29-505: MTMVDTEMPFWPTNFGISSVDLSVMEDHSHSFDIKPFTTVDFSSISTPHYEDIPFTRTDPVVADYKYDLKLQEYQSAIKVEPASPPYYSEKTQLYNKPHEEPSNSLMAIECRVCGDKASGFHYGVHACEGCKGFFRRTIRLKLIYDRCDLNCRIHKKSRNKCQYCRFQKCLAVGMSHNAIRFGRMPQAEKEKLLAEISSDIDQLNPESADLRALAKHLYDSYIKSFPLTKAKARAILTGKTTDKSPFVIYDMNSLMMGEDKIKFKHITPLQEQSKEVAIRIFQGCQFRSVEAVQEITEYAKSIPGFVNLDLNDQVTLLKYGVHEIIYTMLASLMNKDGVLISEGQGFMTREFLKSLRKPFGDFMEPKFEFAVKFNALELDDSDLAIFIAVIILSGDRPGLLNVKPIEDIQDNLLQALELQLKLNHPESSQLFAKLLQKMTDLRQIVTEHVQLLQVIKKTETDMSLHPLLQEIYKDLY

Molecular target: human PPARγ (Homo sapiens, UniProt P37231)
Experiment: PPARγ luciferase reporter gene transactivation in HEK-293 cells
Settings: PPARγ-driven luciferase reporter assay, 18 h

SMILES: C=C[C@@H](O)C#CC#C[C@H](/C=C\CCCCCCC)OC(=O)/C=C/c1ccc(O)c(OC)c1 [compound 9, Notoincisol A]
- maximal fold activation: 2.8
